This passage reports concentration and Kd results from patent publication US7439223.

Assay [1] deals with nucleophosmin/B23. Nature of the assay: cell-based or functional assay.
Assay [2] deals with nucleophosmin/B23. The assay can be described thus: dissociation constant; method not described (FIG. 4).

Rev peptide ([…]): in assay [1], the concentration at which there was a 50% decrease in cell viability (Ras-3T3 cells, 24 hours) was 95.1 µM.

The term Kd denotes a measure of binding affinity in units of concentration. A lower Kd goes with higher affinity. “Rev peptide ([…]) (peptide; other documents disagree on this pair)”: in assay [2], the Kd was determined as 82 nM. That is a double-digit nanomolar value.
